In US7442841B2, “Extraction process” (Invista North America S.A R.L., priority 2006, dated 2008):

Legend:
[1] = Liquid-liquid separation of cyclohexanone from cyclohexane, distribution coefficient by gas chromatography; details: extracting solvent/cyclohexane; equal volumes
[2] = Liquid-liquid separation of cyclohexanol from cyclohexane, distribution coefficient by gas chromatography; assay type: physicochemical; details: extracting solvent/cyclohexane; equal volumes
Protocol: The distribution coefficient for the separation was then calculated.

| Compound | Cyclohexanone Log D [1] | Cyclohexanol Log D [2] |
| --- | --- | --- |
| CCCCn1cc[n+](C)c1 [Example 3] | 0.32 | 0.24 |
| CCCCn1cc[n+](C)c1 [Example 4] | 0.18 | 0.36 |
| CCCCn1cc[n+](C)c1 [Example 6] | 0.64 | 0.61 |
